The subject of this series is Rattus norvegicus. The series is described as follows: Toxicity in Wistar rat assessed as effect on colonic ICAM1 level administered rectally into colon by ELISA. Particulars: in vivo, other, strain Wistar. In general terms: In an ELISA, binding on a coated surface is turned into a signal by an enzyme label.

Among the data in ChEMBL document CHEMBL3585265, “Bacteria-Derived Compatible Solutes Ectoine and 5α-Hydroxyectoine Act as Intestinal Barrier Stabilizers to Ameliorate Experimental Inflammatory Bowel Disease” (J Nat Prod, 2015) are Activity values, retold here.

Turning to `O=[N+]([O-])c1cc([N+](=O)[O-])c(S(=O)(=O)O)c([N+](=O)[O-])c1`, the Activity result was “Non-toxic”.
